Measured values published in US10421747B2, “Quinoxaline derivatives useful as FGFR kinase modulators” (ASTEX THERAPEUTICS LTD, priority 2014, dated 2019).

Legend:
[1] = tested on: Ba/F3-KDR-transfected cells; test: cells; conditions: read-out: BAF3-KDR (MIN IL3 pIC50) (converted)
[2] = tested on: Ba/F3-FGFR4-transfected cells; test: cells; conditions: read-out: BAF3-FGFR4 (pIC50) (converted)

COc1cc(OC)c2c(c1)N(c1ccc3ncc(-c4cnn(C)c4)nc3c1)CCN(C(C)C)C2 [Compound 1]
IC50 [1]: > 10 µM
IC50 [2]: 10 µM
